Like-named read-outs stand apart in the source and are kept apart here.
What was measured:
[1] = target: T1, δ opioid receptor (Rattus norvegicus, UniProt P33533); assay: Binding assay, 3H DADLE, rat tissue; conditions: 100 nM concentration
T1 construct: from tissue; host or cells: rat tissue (per the earlier reading)

Chains of the proteins cited; added tags and fusions are not shown. Lines headed by an entry give the natural chain unless they say otherwise; changes in a name come on top.
UniProt P33533, whole entry: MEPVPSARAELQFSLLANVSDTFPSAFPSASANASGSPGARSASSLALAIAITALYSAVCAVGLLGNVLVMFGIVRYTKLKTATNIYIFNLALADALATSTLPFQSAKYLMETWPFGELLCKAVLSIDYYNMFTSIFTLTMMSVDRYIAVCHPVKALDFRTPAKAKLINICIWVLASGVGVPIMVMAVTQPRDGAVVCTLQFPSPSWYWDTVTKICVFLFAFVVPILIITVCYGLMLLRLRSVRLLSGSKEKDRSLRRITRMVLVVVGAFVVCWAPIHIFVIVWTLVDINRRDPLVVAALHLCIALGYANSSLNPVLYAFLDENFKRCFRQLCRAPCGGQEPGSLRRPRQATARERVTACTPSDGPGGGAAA
UniProt P35372, whole entry: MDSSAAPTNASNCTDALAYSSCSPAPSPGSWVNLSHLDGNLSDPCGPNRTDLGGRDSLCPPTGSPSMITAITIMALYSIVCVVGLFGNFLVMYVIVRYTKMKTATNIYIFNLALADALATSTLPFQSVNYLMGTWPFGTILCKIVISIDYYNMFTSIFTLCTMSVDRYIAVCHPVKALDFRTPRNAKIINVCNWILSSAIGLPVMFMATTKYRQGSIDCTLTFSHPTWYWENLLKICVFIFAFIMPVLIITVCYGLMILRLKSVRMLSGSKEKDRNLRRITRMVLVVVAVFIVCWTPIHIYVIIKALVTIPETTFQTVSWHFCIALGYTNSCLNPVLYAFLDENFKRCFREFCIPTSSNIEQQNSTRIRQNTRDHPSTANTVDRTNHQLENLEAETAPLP

[2] = target: T2, MOR (Homo sapiens, UniProt P35372); assay: cell-based; parameters: host or cells: U2OS-β-arrestin2-EFC-hMOR; conditions: Table 3; read-out: MOR Mediated B-arrestin Recruitment
[3] = target: T2, MOR; assay: cell-based; parameters: expressed in transfected cells; host or cells: CHO-hMOR (membrane variant); SH-SY5Y-hMOR also named; conditions: Table 3; inhibition of forskolin-induced cAMP accumulation; read-out: MOR cAMP Agonist Potency ± SEM

SMILES	3H DADLE δ activity in exploratory assay [1]	EC50 [2] [nM]	EC50 [3] [nM]
CN1CC[C@]23c4c5ccc(O)c4O[C@H]2[C@@H](O)C=C[C@H]3[C@H]1C5 [Morphine, reference compound]	I (<50% activity at 100 nM concentration (displaced less than half of radioligand) in exploratory assay)	–	–
Oc1cccc(C23CCC[C@H]([C@H]2O)N(C/C=C/c2ccccc2)CC3)c1 (stereo in doubt) [Compound 52, (1R,5R,9S)-2-Cinnamyl-5-(3-hydroxyphenyl)-2-azabicyclo[3.3.1]nonan-9-ol]	–	> 25000	0.13 ± 0.02

— patent US11352365B2, “Biased potent opioid-like agonists as improved medications to treat chronic and acute pain and methods of using the same” (THE UNITED STATES OF AMERICA, AS REPRESENTED BY THE …, priority 2018, dated 2022)
